Reference: PubChem BioAssay
The entries are a selection whose mix differs from that of the whole data set. Activity calls are given as the source filed them.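 The calls were made as follows, unless noted: active = mean inhibition above about 50% in the one-dose retest (limit read from the data); inactive = the rest.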

By UniProt entry, the sequences of proteins in these tests, tags left out. Where a name states a change or a piece, a line headed by the entry shows the natural chain unless it says otherwise.
UniProt Q96LD8: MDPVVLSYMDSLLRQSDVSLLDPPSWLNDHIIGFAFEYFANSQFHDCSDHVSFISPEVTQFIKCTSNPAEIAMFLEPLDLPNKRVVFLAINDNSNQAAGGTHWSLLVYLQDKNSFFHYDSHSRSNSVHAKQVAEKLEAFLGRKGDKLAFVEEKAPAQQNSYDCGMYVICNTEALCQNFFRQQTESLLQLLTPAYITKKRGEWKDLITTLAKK
UniProt Q9GZR1: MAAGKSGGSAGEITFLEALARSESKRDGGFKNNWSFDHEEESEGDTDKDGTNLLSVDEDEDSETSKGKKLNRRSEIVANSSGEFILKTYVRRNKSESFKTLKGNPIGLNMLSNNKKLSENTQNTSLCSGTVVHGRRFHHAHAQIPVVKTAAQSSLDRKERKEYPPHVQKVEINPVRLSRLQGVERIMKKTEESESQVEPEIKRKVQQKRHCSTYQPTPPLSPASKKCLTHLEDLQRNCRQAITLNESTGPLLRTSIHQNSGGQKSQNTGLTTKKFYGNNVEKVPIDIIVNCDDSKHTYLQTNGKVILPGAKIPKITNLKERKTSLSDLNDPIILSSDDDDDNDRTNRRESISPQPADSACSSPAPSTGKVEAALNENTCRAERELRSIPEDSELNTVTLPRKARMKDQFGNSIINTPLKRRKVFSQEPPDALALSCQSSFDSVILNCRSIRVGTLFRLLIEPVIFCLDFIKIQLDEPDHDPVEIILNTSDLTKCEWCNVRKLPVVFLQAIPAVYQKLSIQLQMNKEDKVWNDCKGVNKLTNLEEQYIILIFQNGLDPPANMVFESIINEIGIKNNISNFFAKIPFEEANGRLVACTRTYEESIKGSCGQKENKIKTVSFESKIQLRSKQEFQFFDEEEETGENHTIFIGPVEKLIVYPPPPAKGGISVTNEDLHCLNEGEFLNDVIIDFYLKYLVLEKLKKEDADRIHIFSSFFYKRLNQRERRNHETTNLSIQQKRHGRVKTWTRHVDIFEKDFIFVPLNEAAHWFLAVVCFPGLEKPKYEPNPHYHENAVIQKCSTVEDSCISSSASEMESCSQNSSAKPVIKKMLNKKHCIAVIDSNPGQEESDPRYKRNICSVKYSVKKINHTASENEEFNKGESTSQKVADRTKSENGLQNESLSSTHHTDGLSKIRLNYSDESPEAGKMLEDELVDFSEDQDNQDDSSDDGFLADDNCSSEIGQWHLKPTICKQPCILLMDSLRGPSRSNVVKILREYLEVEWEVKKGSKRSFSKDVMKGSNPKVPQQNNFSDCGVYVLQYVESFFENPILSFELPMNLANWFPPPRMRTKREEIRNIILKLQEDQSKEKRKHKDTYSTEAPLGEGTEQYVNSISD
UniProt Q9BQF6: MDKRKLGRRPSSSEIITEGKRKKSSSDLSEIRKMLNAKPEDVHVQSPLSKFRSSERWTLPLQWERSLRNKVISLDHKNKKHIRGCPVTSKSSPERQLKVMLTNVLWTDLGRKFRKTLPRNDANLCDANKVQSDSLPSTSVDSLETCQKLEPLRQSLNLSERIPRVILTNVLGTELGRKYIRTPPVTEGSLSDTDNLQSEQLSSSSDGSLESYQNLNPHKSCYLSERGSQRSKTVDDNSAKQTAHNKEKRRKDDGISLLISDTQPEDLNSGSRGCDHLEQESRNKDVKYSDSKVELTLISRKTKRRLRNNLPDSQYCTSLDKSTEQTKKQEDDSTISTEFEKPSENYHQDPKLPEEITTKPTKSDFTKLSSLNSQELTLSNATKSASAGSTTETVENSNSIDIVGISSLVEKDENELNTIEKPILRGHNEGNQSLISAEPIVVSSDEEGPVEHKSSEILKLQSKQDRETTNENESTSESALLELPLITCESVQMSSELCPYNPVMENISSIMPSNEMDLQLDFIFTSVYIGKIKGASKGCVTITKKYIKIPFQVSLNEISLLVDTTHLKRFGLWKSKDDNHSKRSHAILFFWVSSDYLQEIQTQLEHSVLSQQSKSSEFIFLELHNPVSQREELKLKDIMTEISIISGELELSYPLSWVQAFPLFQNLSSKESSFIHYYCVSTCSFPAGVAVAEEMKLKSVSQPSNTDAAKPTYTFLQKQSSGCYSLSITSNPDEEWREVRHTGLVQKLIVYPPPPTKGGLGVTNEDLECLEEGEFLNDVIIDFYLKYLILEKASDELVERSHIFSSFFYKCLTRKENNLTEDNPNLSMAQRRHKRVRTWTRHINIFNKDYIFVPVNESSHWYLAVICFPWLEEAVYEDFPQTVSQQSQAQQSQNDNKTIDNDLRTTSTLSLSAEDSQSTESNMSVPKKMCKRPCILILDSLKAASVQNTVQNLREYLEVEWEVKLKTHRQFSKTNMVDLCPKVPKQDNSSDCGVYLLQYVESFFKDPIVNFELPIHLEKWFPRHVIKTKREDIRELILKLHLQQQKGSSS
UniProt P42574: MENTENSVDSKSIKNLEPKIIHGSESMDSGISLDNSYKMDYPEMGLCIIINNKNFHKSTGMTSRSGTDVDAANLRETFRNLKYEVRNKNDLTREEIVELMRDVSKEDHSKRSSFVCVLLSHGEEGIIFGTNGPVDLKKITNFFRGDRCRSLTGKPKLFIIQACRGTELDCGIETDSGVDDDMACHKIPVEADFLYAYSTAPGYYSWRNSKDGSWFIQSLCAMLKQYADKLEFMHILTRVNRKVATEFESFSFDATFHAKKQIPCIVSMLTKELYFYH

What was measured:
[1] = target: Sentrin-specific protease 8 (Homo sapiens) (UniProt Q96LD8); assay: SENP8 protease inhibitors, retest, confirmation, biochemical, luminescence, single concentration (AID 488912;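 active = mean inhibition across replicates above about 50%, limit read from the data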); conditions: Recombinant SENP8, Z-RLRGG-aminoluciferin luminescence, 60 min; at 12.5 µM; hits give high values
[2] = target: Sentrin-specific protease 6 (Homo sapiens) (UniProt Q9GZR1); assay: SENP6 protease inhibitors, confirmation, biochemical, luminescence, single concentration (AID 488915); conditions: recombinant SENP6, Z-RLRGG-aminoluciferin luminescence; at 12.5 µM; hits give high values
[3] = target: Sentrin-specific protease 7 (Homo sapiens) (UniProt Q9BQF6); assay: SENP7 protease inhibitors, retest, confirmation, biochemical, luminescence, single concentration (AID 488917); conditions: recombinant SENP7, Z-RLRGG-aminoluciferin luminescence, 40 min; at 12.5 µM; hits give high values
[4] = target: Caspase-3 (Homo sapiens) (UniProt P42574); assay: caspase-3 protease inhibitors, confirmation, selectivity assay for SENP inhibitor project, biochemical, single concentration (AID 488918;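 active = mean inhibition above about 50%, limit read from the data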;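 also: plate controls were enzyme with DMSO for no effect and wells without caspase-3 for full effect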); conditions: purified caspase-3, Z-DEVD-aminoluciferin luminescence, 60 min; at 12.5 µM; hits give high values
[5] = luciferase luminescence interference by compounds, confirmation, artefact control for SENP inhibitor project, biochemical, single concentration, SENP8 reaction pre-completed (AID 488919;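 active = mean inhibition above about 50% when retested at one dose, limit read from the data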;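 also: plate controls were DMSO wells with completed reaction for no effect and substrate without enzyme for full effect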); conditions: Pre-incubated SENP8/Z-RLRGG-aminoluciferin, at 12.5 µM, hits give high values
[6] = fluorescence interference of Apaf-1 inhibitor hits, dose response, artefact control for Apaf-1 inhibitor project (AID 588538; call rule not given here); conditions: fluorescence interference counterscreen, Apaf-1 assay format

Oc1ccc(/C=C/c2cc(O)cc(O)c2)cc1
active: inhibition [1] 85.1% | inhibition [2] 77.3% | inhibition [3] 92.6% | inhibition [4] 61.2% | inhibition [5] 79.9%

CCCCC(CC)CN=C(N)NC(N)=NCCCCCCN=C(N)NC(N)=NCC(CC)CCCC (stereo unspecified)
inactive: IC50 [6] > 100 µM
